We go through 1 substance from US6638905B2, “Cloning and recombinant production of CFR receptor(s)” (priority 1993, dated 2003).

In this experiment the target is T1, hCRF-RA1 (CRF receptor encoded by clone hctCRFR) (Homo sapiens, UniProt P34998).
T1 construct: expressed in transfected cells; host or cells: COSM6 cells, DEAE-dextran transient transfection of clone hctCRFR in pcDNA1
T1 sequence (P34998 24-415): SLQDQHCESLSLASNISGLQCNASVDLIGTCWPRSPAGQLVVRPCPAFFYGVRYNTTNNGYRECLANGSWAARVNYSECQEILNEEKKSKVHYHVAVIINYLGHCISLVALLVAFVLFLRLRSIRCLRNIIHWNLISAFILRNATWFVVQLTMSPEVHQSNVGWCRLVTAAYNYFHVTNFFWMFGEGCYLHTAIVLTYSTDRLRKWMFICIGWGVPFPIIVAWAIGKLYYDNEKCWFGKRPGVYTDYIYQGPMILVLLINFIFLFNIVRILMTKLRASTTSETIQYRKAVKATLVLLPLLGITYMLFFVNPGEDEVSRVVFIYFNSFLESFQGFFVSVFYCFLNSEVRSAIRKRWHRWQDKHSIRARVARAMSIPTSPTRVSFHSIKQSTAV
The experiment in a line: Competitive radioreceptor assay: displacement of 125I-(Nle21,Tyr32)-ovine CRF from membranes of COSM6 cells transfected with hctCRFR. Particulars: read-out: Kd (binding affinity), COSM6 cell membranes. Here is the method:
Approximately 10^6 COSM6 cells were transfected with either […] or […] (rat gonadotropin releasing hormone receptor) by the DEAE-dextran method and grown in 150 mm tissue culture dishes. Two days after transfection, the cells were washed twice with 1 ml HDB and were detached by incubation for 15 min at room temperature in 0.5 mM EDTA in HDB. After pelleting, the cells were washed twice with HDB, and then homogenized in 5% sucrose (16 ml/150 mm dish). […] The reaction was terminated by filtration through GF/C (Whatman) filters, prewetted with 1%BSA, 10 mM HEPES, pH 7.5. The filters were washed 4 times with 1 ml 0.1% BSA, 50 mM Tris, pH 7.5. Filter-bound radioactivity, indicating the presence of CRF-R:^125 I-([…],Tyr^32)-ovine CRF complex, was determined by g-scintillation counting.
In general terms: In a radioligand displacement assay an active substance lowers the binding of a labelled ligand.

As a reminder, the Kd is a measure of binding affinity in units of concentration. For the substance ovine CRF, the Kd amounted to 2.3 ± 0.66 nM.
